Assay results as given in patent publication EP0591583B1, “Benzo (f) quinolinones as 5-alpha-reductase inhibitors” (ELI LILLY AND COMPANY, priority 1992, dated 1994).

Molecular target: T1, 5α-reductase (Homo sapiens, UniProt P18405)
T1 construct: host or cells: Hs68 human genital skin fibroblasts
T1 sequence (P18405 1-259): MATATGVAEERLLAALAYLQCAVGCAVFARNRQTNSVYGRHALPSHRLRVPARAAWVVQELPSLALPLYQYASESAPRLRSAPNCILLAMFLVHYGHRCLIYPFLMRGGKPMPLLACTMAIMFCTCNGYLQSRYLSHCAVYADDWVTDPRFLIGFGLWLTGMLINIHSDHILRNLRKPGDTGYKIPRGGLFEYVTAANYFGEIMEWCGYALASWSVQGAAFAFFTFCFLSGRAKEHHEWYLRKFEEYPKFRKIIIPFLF
Assay: 5α-Reductase activity in Hs68 human genital skin fibroblasts (conversion of labeled testosterone, TLC analysis)
Type: cell-based
Details: Hs68, test compound 0.316 µM; Hs68 cells; substrate testosterone 12 µM; incubated four hours
Experimental: Cell Culture: 5α-Reductase activity was measured using Hs68 human genital skin fibroblasts which were originally purchased from the American Type Culture Collection (Rockville, MD). The cells were grown in Dulbecco's Modified Eagle's Medium (DMEM) plus 10% stripped fetal bovine serum which was supplemented with amphotericin B ([…]) and gentamicin ([…]) (GIBCO, Grand Island, NY). The serum was stripped of endogenous steroids by incubation with dextran-coated charcoal prior to its addition to the media. The cells were maintained at 37°C in an atmosphere of 95% air, 5% CO2 and were passaged every 7-10 days by exposure to a trypsin-EDTA solution (0.025% trypsin, 0.265 mM EDTA). […]
At the end of the incubation the media was collected and transferred to an extraction tube containing 5 ml of toluene-ethanol (9:1), to which has been added 20-250 µg each of unlabeled carrier steroids (estriol, estradiol, estrone, 5α-androstan-3α,17β-diol, 5α-androstan-3β,17β-diol, 4-androstene-3,17-dione, 5α-androstan-3,17-dione, testosterone, and 5α-dihydrotestosterone) (Steraloids, Inc., Wilton, NH). […] The [^14C]-steroids were included as recovery standards to quantify procedural losses. […] The organic phase was collected and the samples taken to dryness, redissolved in dichloromethane-methanol (9:1) and were analyzed by thin layer chromatography using one of the methods described below. […]

In the case of `CN1C(=O)C=C[C@]2(C)c3ccc(Cl)cc3CC[C@@H]12` [Example 60, (R)(+)-trans-4-methyl-8-chloro-10b-methyl-3,4,4a,5,6,10b-hexahydrobenzo[f]quinolin-3-one], the inhibition at 0.316 µM is reported as 86.7%.
